## Ab-14 heavy chain CDR variants: yeast mating affinities

Values reported by Li et al. 2023, doi:10.1038/s41467-023-39022-2 (FLAb copy).

Target peptide (SARS-CoV-2 spike, HR2 region): PDVDLGDISGINAS

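Phage display of a naive human antibody library on the peptide gave the parent. These sequences belong to a second round, designed from the earlier measurements on random variants of the parent. Several design methods are mixed in this list. Affinity was read by AlphaSeq, a pooled yeast mating assay with surface-displayed partners. Mating (16 h, 30 °C) was followed by selection of diploids and sequencing of their barcodes. The ratio of observed to expected reads was calibrated, replicate by replicate, on BCL2-family standards whose Kd was known from biolayer interferometry. The assay was run in six technical replicates.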

Each scFv is VH, three GGGGS repeats, VL, as in the parent Ab-14, and differs from it in the CDRs of the heavy chain only.
VH: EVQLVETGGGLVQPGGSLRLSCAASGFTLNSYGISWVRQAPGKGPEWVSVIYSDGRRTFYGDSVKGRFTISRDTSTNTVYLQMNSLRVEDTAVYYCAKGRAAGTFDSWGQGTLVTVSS
VL: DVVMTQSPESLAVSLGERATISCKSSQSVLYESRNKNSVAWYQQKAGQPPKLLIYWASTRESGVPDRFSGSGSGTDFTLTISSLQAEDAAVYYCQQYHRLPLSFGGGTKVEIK

Each variant is given by its three heavy chain CDRs, as the data file delimits them; those of the parent are GFTLNSYGIS, VIYSDGRRTFYGDSVK, GRAAGTFDS. This list holds designs with at most six substitutions. Numbers give log10(Kd / nM), so 0 is 1 nM and 3 is 1 µM. Smaller is tighter. A mean of the replicates is given; it leaves out those without a signal. An entry "nd" has no value in the source: the pair was not observed among the diploids in any replicate. This suggests poor binding but is not conclusive. Where one sequence has several entries in the source, the replicates are pooled. As a blank, each scFv also met three strains without target: over all heavy chain designs, 1% of these pairings were detected, typically at 2.08 and seldom below 0.84. Also given: how often the same scFv was detected with the empty control strains. The authors averaged sequences with at least three values out of six and counted those with two or fewer as poor binders. The range of this assay differs from that of the first round, and the authors advise against merging the two.

* GFGLNMYGIS, VIYSDGRRTFYGDSVK, GRTAGTFDS -> 1.91 (4 of 6 replicates; controls 0 of 18)
* GFPLNSYGIS, VIYADGRRTFYGDSVK, GRAKGTFDS -> nd (0 of 6 replicates; controls 2 of 18)
* GFTLNSYGIS, VIYSDGRRTFYGDSVK, GREAFFFDS -> nd (0 of 6 replicates; controls 0 of 18)
* GFNLNEYGIS, VIYADGRRTFYADSVK, GNAAGTFDV -> -0.25 (6 of 6 replicates; controls 0 of 18)
* GFTLNSYGIS, VIYSDGRRTFYSDSVK, VRNAGTFDS -> nd (0 of 6 replicates; controls 0 of 18)
* GFDLNSYGIS, VIYSDGRRTFYGDSVK, GEAAGTFDN -> 0.80 (6 of 6 replicates; controls 1 of 18)
* GFTLGSYGIS, VIYSDGLRTFYGDSVK, GRAAGTFDS -> 2.24 (3 of 6 replicates; controls 0 of 18)
* GFSLNSYGIS, VIYSDGRRTFYGDSVK, GEAAGTFDS -> 0.56 (2 of 12 replicates; controls 0 of 36)
* GFDLNSYGIS, VIYSDGRRTFYGDSVK, GWMAGTFDS -> -0.84 (5 of 6 replicates; controls 0 of 18)
* GETLMSYGIS, VIYSDGRRTFYGDSVK, GREAGTGDS -> nd (0 of 6 replicates; controls 0 of 18)
* GFTLNSYGIS, VIYSDGRRVFYGDSVK, GRAAGTFDS -> 2.44 (2 of 6 replicates; controls 0 of 18)
* GFNLNSYGIS, VIYSDGRRTFYADSVK, GQAAGTFDL -> 0.06 (6 of 6 replicates; controls 0 of 18)
* GFTLNSYGIS, VIYSDGRRTFYSDSVK, GTAVGTFDT -> nd (0 of 6 replicates; controls 0 of 18)
* GFNLNSYGIS, VIYSDGRRTFYQDSVK, GGVAGTFDS -> 0.68 (6 of 6 replicates; controls 0 of 18)
* GFDLNNYGIS, VIYSDGRRTFYGDSVK, GEAAGTFDS -> nd (0 of 6 replicates; controls 0 of 18)
* GFTLNSYGIS, VIYSDGRKTFYGDSVK, GRAALTVDS -> nd (0 of 6 replicates; controls 1 of 18)
* GFSLNEYGIS, VIYSDGRRTFYGWSVK, GRQAGTFDS -> 1.33 (2 of 6 replicates; controls 0 of 18)
* GFDLNSYGIS, VIYSDGRRTFYVDDVK, GRQAGTFDS -> 0.53 (6 of 6 replicates; controls 0 of 18)
* GFQLNSYGIS, VIYSDGRRTFYGDSVK, GSAAGTFDS -> 0.93 (6 of 6 replicates; controls 1 of 18)
* GFSLNSYGIS, VIYSDGRRTAYGDHVK, GRTAGTFDS -> 0.06 (6 of 6 replicates; controls 0 of 18)
* GFDLNSYGIS, VIYSDGRRTFYGDSVK, GRAAGTFNQ -> 0.89 (1 of 6 replicates; controls 0 of 18)
* GFHLNSYGIS, VIYSDGKRTFYADSVK, GQAAGTFDS -> 0.78 (5 of 6 replicates; controls 0 of 18)
* GFTLNSYGTS, VIYADGRRTFYGDSVK, GRANGTNKS -> nd (0 of 6 replicates; controls 0 of 18)
* GFPLNSYGIS, VIYSDGRRTFYGDSVK, GYAAGTFDS -> 1.50 (2 of 6 replicates; controls 0 of 18)
* GFELNEYGIS, VIYSDGMRTFYVDSVK, GRQAGTFDS -> 0.47 (6 of 6 replicates; controls 0 of 18)
* GFQLNSYGIS, VIYSDGRRTFYGDSVK, GRHAGTFDS -> nd (0 of 6 replicates; controls 0 of 18)
* GFTLNSYGIS, VIYSDGRRTFYGDSVK, GRVAGTPFV -> nd (0 of 6 replicates; controls 0 of 18)
* GFTLNSYGIS, VIYSDGRRTFYGDSVK, GKEAGTFDT -> 0.51 (6 of 6 replicates; controls 0 of 18)
* GFTLNSYGIS, VIYSDGRRTFYGDSVK, GFAAGTFDS -> 0.32 (6 of 6 replicates; controls 0 of 18)
* GFTLDSYGIS, VIYSDGRETFYGDSVK, GRAAGTFDS -> 3.59 (2 of 6 replicates; controls 0 of 18)